PMC12207880 (The Oncologist, 2025)
Read-outs that look alike come from different tables or passages of the source.

Test system: patients with advanced solid tumors

Cc1nc2c(F)cc(-c3nc(Nc4ccc5c(n4)CCN(CCN(C)C)C5)ncc3F)cc2n1C1CC1
4 (100) n (%): Leucocyte count decreased, Grade All (300 mg QD, N = 4) | Neutrophil count decreased, Grade All (300 mg QD, N = 4)
1 (14.3) n (%): Alanine aminotransferase increased, Grade All (600 mg QD, N = 7) | Alkaline phosphatase increased, Grade All (600 mg QD, N = 7)
3 (42.9) n (%): Abdominal pain, Grade All (600 mg QD, N = 7)
1 (25.0) n (%): Lymphocyte count decreased, Grade ≥3 (300 mg QD, N = 4) | γ-glutamyl transpeptidase increased, Grade All (300 mg QD, N = 4)
4 (44.4) n (%): Aspartate aminotransferase increased, Grade All (400 mg QD, N = 9) | Hypokalaemia, Grade All (400 mg QD, N = 9) | Platelet count decreased, Grade All (400 mg QD, N = 9)
2 (28.6) n (%): Appetite decreased, Grade All (600 mg QD, N = 7) | Aspartate aminotransferase increased, Grade All (600 mg QD, N = 7) | Blood lactic dehydrogenase increased, Grade All (600 mg QD, N = 7) | Dizziness, Grade All (600 mg QD, N = 7)
2 (50.0) n (%): Platelet count decreased, Grade All (300 mg QD, N = 4)
7 (77.8) n (%): All TRAEs, Grade ≥3 (400 mg QD, N = 9) | Diarrhoea, Grade All (400 mg QD, N = 9) | Neutrophil count decreased, Grade All (400 mg QD, N = 9)
6 (85.7) n (%): Diarrhoea, Grade All (600 mg QD, N = 7)
3 (33.3) n (%): Abdominal pain, Grade All (400 mg QD, N = 9) | Alanine aminotransferase increased, Grade All (400 mg QD, N = 9) | Fatigue, Grade All (400 mg QD, N = 9)
3 (75.0) n (%): Lymphocyte count decreased, Grade All (300 mg QD, N = 4)
7 (100) n (%): All TRAEs, Grade All (600 mg QD, N = 7) | Anaemia, Grade All (600 mg QD, N = 7)
8 (88.9) n (%): Leucocyte count decreased, Grade All (400 mg QD, N = 9)
0 n (%): Hyponatraemia, Grade All (300 mg QD, N = 4) | Hyponatraemia, Grade ≥3 (300 mg QD, N = 4) | Leucocyte count decreased, Grade ≥3 (300 mg QD, N = 4) | Nausea, Grade All (300 mg QD, N = 4) | Nausea, Grade ≥3 (300 mg QD, N = 4) | Neutrophil count decreased, Grade ≥3 (300 mg QD, N = 4) | Platelet count decreased, Grade ≥3 (300 mg QD, N = 4) | Rash, Grade All (300 mg QD, N = 4) | Rash, Grade ≥3 (300 mg QD, N = 4) | Vomiting, Grade All (300 mg QD, N = 4) | Vomiting, Grade ≥3 (300 mg QD, N = 4) | γ-glutamyl transpeptidase increased, Grade ≥3 (300 mg QD, N = 4) | Abdominal pain, Grade ≥3 (400 mg QD, N = 9) | Alkaline phosphatase increased, Grade ≥3 (400 mg QD, N = 9) | Anaemia, Grade ≥3 (400 mg QD, N = 9) | Appetite decreased, Grade All (400 mg QD, N = 9) | Appetite decreased, Grade ≥3 (400 mg QD, N = 9) | Aspartate aminotransferase increased, Grade ≥3 (400 mg QD, N = 9) | Blood creatinine increased, Grade ≥3 (400 mg QD, N = 9) | Blood lactic dehydrogenase increased, Grade ≥3 (400 mg QD, N = 9) | Dizziness, Grade All (400 mg QD, N = 9) | Dizziness, Grade ≥3 (400 mg QD, N = 9) | Electrocardiogram QT prolonged, Grade All (400 mg QD, N = 9) | Electrocardiogram QT prolonged, Grade ≥3 (400 mg QD, N = 9) | Haematuria, Grade All (400 mg QD, N = 9) | Haematuria, Grade ≥ 3 (400 mg QD, N = 9) | Hypoalbuminemia, Grade All (400 mg QD, N = 9) | Hypoalbuminemia, Grade ≥3 (400 mg QD, N = 9) | Hyponatraemia, Grade ≥3 (400 mg QD, N = 9) | Lymphocyte count decreased, Grade ≥3 (400 mg QD, N = 9) | Platelet count decreased, Grade ≥3 (400 mg QD, N = 9) | Rash, Grade ≥3 (400 mg QD, N = 9) | Vomiting, Grade ≥3 (400 mg QD, N = 9) | Abdominal pain, Grade ≥3 (600 mg QD, N = 7) | Alanine aminotransferase increased, Grade ≥3 (600 mg QD, N = 7) | Alkaline phosphatase increased, Grade ≥3 (600 mg QD, N = 7) | Anaemia, Grade ≥3 (600 mg QD, N = 7) | Appetite decreased, Grade ≥3 (600 mg QD, N = 7) | Aspartate aminotransferase increased, Grade ≥3 (600 mg QD, N = 7) | Blood creatinine increased, Grade All (600 mg QD, N = 7) | Blood creatinine increased, Grade ≥3 (600 mg QD, N = 7) | Blood lactic dehydrogenase increased, Grade ≥3 (600 mg QD, N = 7) | Diarrhoea, Grade ≥3 (600 mg QD, N = 7) | Dizziness, Grade ≥3 (600 mg QD, N = 7) | Electrocardiogram QT prolonged, Grade All (600 mg QD, N = 7)
4 (57.1) n (%): All TRAEs, Grade ≥3 (600 mg QD, N = 7)
2 (22.2) n (%): Diarrhoea, Grade ≥3 (400 mg QD, N = 9) | Fatigue, Grade ≥3 (400 mg QD, N = 9) | Hypokalaemia, Grade ≥3 (400 mg QD, N = 9) | Leucocyte count decreased, Grade ≥3 (400 mg QD, N = 9) | Lymphocyte count decreased, Grade All (400 mg QD, N = 9) | Neutrophil count decreased, Grade ≥3 (400 mg QD, N = 9) | γ-glutamyl transpeptidase increased, Grade All (400 mg QD, N = 9)
5 (55.6) n (%): Anaemia, Grade All (400 mg QD, N = 9) | Nausea, Grade All (400 mg QD, N = 9)
6 (66.7) n (%): Vomiting, Grade All (400 mg QD, N = 9)
1 (11.1) n (%): Alanine aminotransferase increased, Grade ≥3 (400 mg QD, N = 9) | Alkaline phosphatase increased, Grade All (400 mg QD, N = 9) | Blood creatinine increased, Grade All (400 mg QD, N = 9) | Blood lactic dehydrogenase increased, Grade All (400 mg QD, N = 9) | Hyponatraemia, Grade All (400 mg QD, N = 9) | Nausea, Grade ≥3 (400 mg QD, N = 9) | Rash, Grade All (400 mg QD, N = 9) | γ-glutamyl transpeptidase increased, Grade ≥3 (400 mg QD, N = 9)
9 (100) n (%): All TRAEs, Grade All (400 mg QD, N = 9)
